Binding of CDR-mutated scFvs to a peptide of the spike HR2 region

The measurements come from Li et al. 2023 (doi:10.1038/s41467-023-39022-2) through the FLAb antibody collection.

All variants were tested on one target, the spike HR2 peptide PDVDLGDISGINAS (SARS-CoV-2).

Parent: Ab-14, a human scFv built as VH, three GGGGS repeats, VL. Only the CDRs of the heavy chain vary.
VH: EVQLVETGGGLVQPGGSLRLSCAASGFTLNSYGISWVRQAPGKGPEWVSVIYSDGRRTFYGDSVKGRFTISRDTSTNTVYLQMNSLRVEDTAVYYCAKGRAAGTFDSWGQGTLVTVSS
VL: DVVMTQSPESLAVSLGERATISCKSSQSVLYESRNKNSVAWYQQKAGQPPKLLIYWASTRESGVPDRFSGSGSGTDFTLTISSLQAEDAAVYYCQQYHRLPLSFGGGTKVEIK

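This is the validation round: designs drawn from the data on random variants, tested in the same kind of assay. Their group label is 14H_En_HC (En: ensemble of fine-tuned language models; HC: hill climbing; a sequence that several methods proposed may carry one label only). AlphaSeq pools MATa yeast showing the antibodies with MATalpha yeast showing the peptide. Binding brings cells together so that they mate, and sequencing counts the barcode pairs among the diploids. Scores were corrected for input abundance and mapped to Kd with protein pairs of known affinity run in the same pool. The assay was run in six technical replicates.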

Variants are written as CDR1, CDR2 and CDR3 of the heavy chain (limits as in the source). Parent: GFTLNSYGIS, VIYSDGRRTFYGDSVK, GRAAGTFDS. Values are log10 of the apparent Kd in nM; lower means stronger binding. Replicates are averaged; those with no signal do not enter the mean. A pair that was not seen in that replicate is written "ND"; this usually means weak binding, but a binder can also be missed. Nonspecific signal, from three strains lacking the peptide, appeared in 1% of pairings of all heavy chain designs, centred on 2.08 (5% of these signals below 0.84); values are not corrected for it. The control count says in how many pairings with the empty strains this scFv gave a signal, with their mean in brackets.

| # | CDR-H1 | CDR-H2 | CDR-H3 | replicates, log10 nM | mean, log10 nM | control signals |
|---|---|---|---|---|---|---|
| 1 | GFDLNEYGIS | VIYADGRRTMYADSVK | GQLAGTFDV | -0.41 -0.43 -0.41 0.01 -0.33 0.15 | -0.24 | 0 of 18 |
| 2 | GFNLDEYGIS | VIYADGMRTFYSDSVK | GEAAGTFDV | -0.17 -0.26 -0.40 -0.48 -0.59 -0.38 | -0.38 | 0 of 18 |
| 3 | GFDLNEYGIS | VIYADGRRTFYADSVK | GQTAGTFDV | -0.53 -0.60 -0.74 -0.88 -0.86 -0.49 | -0.68 | 1 of 18 (1.98) |
| 4 | GFDLNEYGIS | VIYADGSRTFYSDSVK | GNTAGTFDV | -0.53 -0.12 -0.24 -0.11 -0.20 -0.14 | -0.22 | 0 of 18 |
| 5 | GFDLNEYGIS | VIYADGRRTFYIDSVK | GETAGTFIM | 0.71 0.31 1.63 1.11 0.84 0.86 | 0.91 | 0 of 18 |
| 6 | GFDLNEYGIS | VIYADGVRTFYTDSVK | GEHAGTFDV | -0.33 -0.40 -0.47 -0.61 -0.46 -0.33 | -0.43 | 0 of 18 |
| 7 | GFDINEYGIS | VIYADGRRTFYTDSVK | GQNAGTFDV | -0.37 -0.38 -0.59 -0.60 0.23 -0.15 | -0.31 | 0 of 18 |
| 8 | GFDLNEYGIS | VIYADGRRTFYADSVK | GELAGTFDS | 0.91 1.36 0.44 ND 0.78 0.95 | 0.89 | 0 of 18 |
| 9 | GFNLNEYGIS | VIYADGRRTFYADSVK | GETAGSFDI | -0.28 -0.39 -0.55 -0.51 -0.38 -0.51 | -0.44 | 0 of 18 |
| 10 | GFNLNEYGIS | VIYADGRRTAYSDSVK | GEAGGTFDV | -0.02 -0.46 -0.07 -0.43 -0.51 -0.14 | -0.27 | 0 of 18 |
| 11 | GFDLNEYGIS | VIYADGKRTFYADSVK | GQAAGTFDV | ND 4.48 ND 2.17 ND 2.78 | 3.14 | 0 of 18 |
| 12 | GFDLDEYGIS | VIYADGRRTYYQDSVK | GNVAGTFDS | -0.34 -0.61 -0.43 -0.59 -0.65 -0.29 | -0.49 | 0 of 18 |
| 13 | GFDLNEYGIS | VIYADGRRTFYADSVK | GEAAGTFVN | 0.36 0.68 0.71 0.55 0.44 0.14 | 0.48 | 0 of 18 |
| 14 | GFDLDEYGIS | VIYADGRRTFYADSVK | GELAGTFDQ | -0.61 -0.68 -1.20 -1.15 -0.70 -0.92 | -0.88 | 1 of 18 (0.75) |
| 15 | GFDLNEYGIS | VIYADGQRTFYADSVK | GKNAGTFDV | 0.10 -0.22 -0.16 -0.55 -0.08 -0.23 | -0.19 | 0 of 18 |
| 16 | GFDLESYGIS | VIYADGRRTFYADSVK | GVNAGTFDI | 0.01 -0.18 -0.19 -0.29 -0.63 -0.27 | -0.26 | 0 of 18 |
| 17 | GFGLDEYGIS | VIYADGRRTFYADSVK | GNVAGTFDQ | -0.55 -0.46 -0.71 -0.17 -0.72 -0.51 | -0.52 | 0 of 18 |
| 18 | GFDLNEYGIS | VIYADGRRTAYADSVK | GQIAGTFDT | -0.14 -0.87 -0.32 -0.90 -1.26 -0.98 | -0.75 | 0 of 18 |
| 19 | GFDLNEYGIS | VIYADGRRTAYTDSVK | GHNAGTFKL | 0.60 0.52 0.99 0.30 0.38 0.34 | 0.52 | 0 of 18 |
| 20 | GFDLNEYGIS | VIYADGRRTFYSDSVK | GQLAGTFDT | -0.48 0.20 -0.94 -0.64 -0.72 -0.20 | -0.46 | 0 of 18 |
| 21 | GFDLNEYGIS | VIYADGRRTFYKDSVK | GEAAGTFDI | -0.60 -0.64 -0.93 -0.84 -0.65 -0.63 | -0.71 | 0 of 18 |
| 22 | GFDLNEYGIS | VIYADGRRTFYADDVK | GEVAGTFDV | -0.54 -0.64 -0.78 -0.79 -0.91 -0.30 | -0.66 | 0 of 18 |
| 23 | GFDLNEYGIS | VIYADGRRTFYSDSVK | GAVAGTFDT | -0.88 -0.55 -0.86 -0.82 -1.25 -0.71 | -0.84 | 0 of 18 |
| 24 | GFNLNEYGIS | VIYADGRRTFYADSVK | GQQAGTFDI | -0.08 -0.21 -0.29 -0.55 -0.36 0.04 | -0.24 | 0 of 18 |
| 25 | GFDLDEYGIS | VIYADGRRTFYADSVK | GQLAGTFDA | -0.48 -0.60 -0.56 -1.05 -0.46 -0.20 | -0.56 | 0 of 18 |
| 26 | GFDLNEYGIS | VIYADGRRTYYIDSVK | GNEAGTFDV | -0.20 -0.29 -0.43 -0.53 -0.57 -0.50 | -0.42 | 0 of 18 |
| 27 | GFDIDEYGIS | VIYADGRRTFYADSVK | GQNAGTFDS | -0.30 -0.13 -0.53 -0.51 -0.07 -0.52 | -0.34 | 0 of 18 |
| 28 | GFDLNEYGIS | VIYADGMRTFYDDSVK | GQTAGTFDF | ND ND ND ND ND ND | ND | 0 of 18 |
| 29 | GFDLEEYGIS | VIYADGRRTFYSDSVK | GETAGTFDS | -0.25 -0.29 -0.64 -0.73 -0.13 -0.37 | -0.40 | 0 of 18 |
| 30 | GFDLSEYGIS | VIYADGRRTFYTDSVK | GEFAGTFDV | 0.31 0.20 0.77 0.87 0.15 0.20 | 0.42 | 0 of 18 |
| 31 | GFDLDEYGIS | VIYADGMRTFYADSVK | GNIAGTFLL | 0.24 -0.18 -0.61 -0.76 -0.49 -0.32 | -0.35 | 0 of 18 |
| 32 | GFDLNEYGIS | VIYADGRRTFYADSVK | GKNAGTFSV | 0.06 -0.28 -0.56 -0.32 -0.45 -0.45 | -0.33 | 0 of 18 |
| 33 | GFSLDEYGIS | VIYADGRRTFYQDDVK | GNVAGTFDK | 0.18 0.12 -0.31 -0.66 -0.60 -0.47 | -0.29 | 1 of 18 (0.91) |
| 34 | GFNLNEYGIS | VIYADGRRTFYADSVK | GNQAGTFIM | -0.57 -1.35 -0.51 -0.52 ND -0.97 | -0.78 | 0 of 18 |
| 35 | GFNLNEYGIS | VIYADGRRTFYADSVK | GHNAGTFDV | -0.07 -0.63 -0.64 -0.61 -0.32 -0.35 | -0.44 | 0 of 18 |
| 36 | GFDLNEYGIS | VIYADGSRTAYADSVK | GEAAGSFDQ | 0.86 0.89 0.86 0.62 0.23 0.42 | 0.65 | 1 of 18 (3.72) |
| 37 | GFDLNEYGIS | VIYADGRRTFYADSVK | GEAAGTFNM | -0.16 -0.16 -0.35 -0.23 -0.37 -0.18 | -0.24 | 0 of 18 |
| 38 | GFDLNEYGIS | VIYADGRRTQYIDSVK | GEIAGTFDF | 0.01 -0.38 -0.64 0.18 -0.70 -0.36 | -0.31 | 0 of 18 |
| 39 | GFDLNEYGIS | VIYADGRRTFYTDSVK | GNNAGTFDQ | ND ND ND ND ND ND | ND | 0 of 18 |
| 40 | GFDLNEYGIS | VIYADGRRTAYDDSVK | GTNAGTFDQ | 0.14 -0.15 -0.52 0.15 -0.22 -0.15 | -0.12 | 0 of 18 |
| 41 | GFNLNEYGIS | VIYADGRRTFYADSVK | GEVAGTFDV | -0.17 -0.58 0.09 -0.88 -0.71 -0.01 | -0.38 | 1 of 18 (1.17) |
| 42 | GFSLDEYGIS | VIYADGRRTFYADSVK | GNVAGTFDL | -1.53 -1.50 -1.40 -1.78 -1.65 -1.72 | -1.60 | 0 of 18 |
| 43 | GFDLNEYGIS | VIYADGRRTQYIDSVK | GNVAGTFDS | 0.04 0.33 -0.46 0.40 1.10 -0.59 | 0.14 | 0 of 18 |
| 44 | GFDLNEYGIS | VIYADGRRTAYTDSVK | GGNAGTFDS | -0.23 -0.54 -0.40 -0.57 -0.60 -0.29 | -0.44 | 0 of 18 |

Values of this round are not directly comparable with the first-round values of the same sequences. The authors averaged sequences with at least three values out of six and counted those with two or fewer as poor binders.